{"source": "patent US11021501B2", "about": "“Creatine phosphate analog prodrugs, compositions and methods of use thereof” (Farmington Pharma Development, priority 2015, dated 2021)", "origin": "cited, not measured here", "tested_on": "ALS", "settings": "ALS patients"}
{"smiles": "Nc1nc2ccc(OC(F)(F)F)cc2s1", "note": "[riluzole]", "values": [{"measurement": "extension of survival", "value": "about three"}]}
